Measured values as given in patent US10144730B2, “Inhibitors of c-Jun-N-terminal kinase (JNK)” (Dana-Farber Cancer Institute, Inc., priority 2011, dated 2018).

Test system: c-Jun phosphorylation
Assay: LanthaScreen TR-FRET cell assay for c-Jun phosphorylation in HeLa cells
Type: cell-based
Details: HeLa and A375 formats, tested in parallel

N#Cc1c(NC(=O)c2cccc3ccccc23)sc2c1CCCC2
IC50's for c-Jun phosphorylation in both cellular assay formats: micromolar range
